Reference: patent US9199927B2, “Guanidinobenzoic acid compound” (Astellas Pharma Inc., priority 2011, dated 2015)

The chains behind the UniProt entries cited, without tags or fusion partners. Residues count along the entry.
UniProt P07477, 24-247: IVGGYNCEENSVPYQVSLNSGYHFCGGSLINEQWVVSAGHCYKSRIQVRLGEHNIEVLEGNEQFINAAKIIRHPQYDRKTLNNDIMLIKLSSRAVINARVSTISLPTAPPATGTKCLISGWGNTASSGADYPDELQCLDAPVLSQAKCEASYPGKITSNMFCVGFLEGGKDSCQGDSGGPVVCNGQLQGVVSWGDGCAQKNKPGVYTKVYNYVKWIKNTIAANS

Assays:
[1] = target: mouse trypsin (m-trypsin); experiment: Inhibitory activity of trypsin enzyme (mouse trypsin purified from small intestine contents, BZiPAR fluorescent substrate); assay type: biochemical; conditions: mouse trypsin diluted 1/50, BZiPAR substrate, 30 minutes at room temperature
Text: (§1) 1. Inhibitory Activity of Trypsin Enzyme in Humans and Mice
(§2) In the experiment, human recombinant trypsin (r-h trypsin; manufactured by WAKO, cat. #206-17171) and mouse trypsin (m-trypsin; purified from the mouse small intestine contents by the present Company) were used.
The method to extract the trypsin from the mouse small intestine is shown below.
The small intestine contents and the gastrointestinal tract of 10 mice were suspended in PBS using Polytron and subjected to centrifugation at 15,000×g several times. The supernatant was mixed at 4° C. for 16 hours with a Benzamidine Sepharose 4 Fast Flow Resin (GE Healthcare: #17-5123-10). After washing the resin with PBS, m-trypsin was eluted with a glycine elution buffer (pH 3.0). It was confirmed by Western blot analysis that the purified fraction was recognized as Anti-mouse Trypsin Antibody (Santa Cruz Biotechnology, Inc.: sc-67388)).
(§3) The outline of the measurement method is shown below.
(§4) The compound was dissolved in dimethyl sulfoxide (DMSO), and diluted to an arbitrary concentration (A). A was 100-fold diluted with a buffer (0.1 M Tris (pH 8.0), 0.15 M NaCl, 10 mM CaCl2, 0.05% Brij38) (B). The r-h trypsin was diluted with a buffer to 0.088 μg/mL, and the m-trypsin was diluted with a buffer to 1/50 (C). […] The substrate solution of a substrate for the enzyme reaction, BZiPAR, (Rhodamine Reference Substrate) was diluted with a buffer to 5 μmol/L (D). B; 5 μL, C; 5 μL, and D; 10 μL were added to a 384-plate, and incubated at room temperature for 30 minutes. The fluorescent signals were detected with Ex/Em=497/520 using Tecan Safire Fluorometer. […] Based on the obtained inhibitory rates, IC50 values (nM) were calculated from the non-linear regression. The test was carried out in the same manner, using camostat as a control compound.
(§5) Ex in the table represents the Example No. as denoted below.

[2] = target: human recombinant trypsin (r-h trypsin) (Homo sapiens (Human), UniProt P07477); experiment: Inhibitory activity of trypsin enzyme (human recombinant trypsin, BZiPAR fluorescent substrate); assay type: biochemical; conditions: human recombinant trypsin 0.088 μg/mL, 30 minutes at room temperature
Method: as §1, §2, §3, §4, §5

IC50 [1] [nM]	IC50 [2] [nM]	SMILES
0.19	0.2	N=C(N)Nc1ccc(C(=O)Oc2ccc(CC(=O)N[C@@H](Cc3ccc(Cl)cc3)C(=O)O)c(Cl)c2)cc1 [Example 15]
0.22	0.23	N=C(N)Nc1ccc(C(=O)Oc2ccc(CC(=O)N[C@@H](Cc3ccc(F)cc3)C(=O)O)c(Cl)c2)cc1 [Example 14]
0.41	0.43	N=C(N)Nc1ccc(C(=O)Oc2ccc(CCC(=O)N(CC(=O)O)Cc3csc(C(=O)O)c3)c(Cl)c2)cc1 [Example 63]
0.17	0.26	N=C(N)Nc1ccc(C(=O)Oc2ccc3nc(C(=O)N[C@H](C(=O)O)c4ccccc4)ccc3c2)cc1 [Example 21]
0.26	0.23	COc1ccc(C[C@H](NC(=O)Cc2ccc(OC(=O)c3ccc(NC(=N)N)cc3)cc2Cl)C(=O)O)cc1 [Example 16]
0.28	0.24	N=C(N)Nc1ccc(C(=O)Oc2ccc3nc(C(=O)N(CC(=O)O)Cc4ccc(CC(=O)O)cc4)ccc3c2)cc1 [Example 113]
7.5	8.6	N=C(N)Nc1ccc(C(=O)Oc2ccc3cc(C(=O)N[C@@H](Cc4ccccc4)C(=O)O)[nH]c3c2)cc1 [Example 119]
0.17	0.24	N=C(N)Nc1ccc(C(=O)Oc2ccc3nc(C(=O)N[C@@H](CC(=O)O)c4ccccc4)ccc3c2)cc1 [Example 28]
0.14	0.19	CC(C(=O)N(CC(=O)O)Cc1cccc(C(=O)O)c1)c1ccc(OC(=O)c2ccc(NC(=N)N)cc2)cc1Cl (stereo not drawn) [Example 108]
0.31	0.32	N=C(N)Nc1ccc(C(=O)Oc2ccc(CCC(=O)N(CC(=O)O)c3cccc(CC(=O)O)c3)c(Cl)c2)cc1 [Example 41]
0.54	0.9	N=C(N)Nc1ccc(C(=O)Oc2ccc(CCC(=O)NCc3cccc(C(=O)O)c3)c(Cl)c2)cc1 [Example 20]
0.28	0.34	N=C(N)Nc1ccc(C(=O)Oc2ccc(CCC(=O)N[C@@H](CC(=O)O)c3ccccc3)c(Cl)c2)cc1 [Example 23]
